Reference: US20050282943A1, “Solubilized additive composition comprising acidic and basic constituents” (INVISTA NORTH AMERICA S.A R.L., priority 2004, published 2005)

What was measured:
[1] = Dissolution of water insoluble additive in demineralized water on adding a counterpart salt forming species (visual)
[2] = Dissolution of additive salt in water / caprolactam solvent medium (visual); type: physicochemical; conditions: Nylostab SEED 4.43 g + isophthalic acid 1.66 g in 4.43 g caprolactam / 11.6 g demineralized water (Example 4)
Procedure: Caprolactam (4.43 g) was dissolved in 11.6 g demineralized water. […] The solution was about 20 w % Nylostab SEED and 20 w % Caprolactam.

[3] = Irganox 1310 0.278 g + 2-methylpentamethylenediamine 0.116 g in 1 g demineralized water (Example 8)

SMILES | additive content of solution ([1]; Example 8, 3 g water, 0.232 g 2-methylpentamethylenediamine in total) | dissolution (observation) ([1]; Example 8, 3 g water, after an additional 0.116 g 2-methylpentamethylenediamine) | additive content of solution [1, 3] | dissolution (observation) [1, 3] | dissolution (observation) [2]
CC(C)(C)c1cc(CCC(=O)O)cc(C(C)(C)C)c1O [Irganox 1310, 3-(3,5-di-t-butyl-4-hydroxyphenyl)propionic acid] | about 8 w % | the precipitate dissolved | about 20 w % | dissolved to form a clear colourless solution | –
CC1(C)CC(NC(=O)c2cccc(C(=O)NC3CC(C)(C)NC(C)(C)C3)c2)CC(C)(C)N1 [Nylostab SEED, N,N′-bis(2,2,6,6-tetramethyl-4-piperidinyl)-1,3-benzenedicarboxamide] | – | – | – | – | dissolved to form a stable, clear colourless solution
